Data taken from BindingDB's records for doi:10.7270/Q21G0K51 (University of Carthage, 2017).

Chains of the proteins cited; added tags and fusions are not shown.
UniProt Q9N1N9, whole entry: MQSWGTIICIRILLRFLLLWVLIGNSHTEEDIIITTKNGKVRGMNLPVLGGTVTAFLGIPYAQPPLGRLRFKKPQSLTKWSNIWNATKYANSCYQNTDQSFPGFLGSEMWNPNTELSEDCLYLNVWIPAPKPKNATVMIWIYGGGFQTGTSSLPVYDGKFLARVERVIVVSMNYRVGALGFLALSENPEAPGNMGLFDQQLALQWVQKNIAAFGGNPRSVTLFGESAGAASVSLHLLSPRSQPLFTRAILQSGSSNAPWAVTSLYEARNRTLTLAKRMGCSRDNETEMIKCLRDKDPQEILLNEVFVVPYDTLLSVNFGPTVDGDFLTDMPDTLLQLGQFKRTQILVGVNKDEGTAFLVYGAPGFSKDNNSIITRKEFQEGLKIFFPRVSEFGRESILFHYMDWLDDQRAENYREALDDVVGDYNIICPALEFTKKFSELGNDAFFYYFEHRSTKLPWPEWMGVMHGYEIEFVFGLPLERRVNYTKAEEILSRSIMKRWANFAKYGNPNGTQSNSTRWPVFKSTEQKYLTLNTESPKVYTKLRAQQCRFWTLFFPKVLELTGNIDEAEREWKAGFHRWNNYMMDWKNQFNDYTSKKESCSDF

Biological target: Carboxylic ester hydrolase (Equus caballus, UniProt Q9N1N9)
Experiment: Cholinesterase Activity Assay
Description: The eight synthesized dialkyl-3-cyanopropylphosphates (3a-h) were dissolved in0.01 M dimethyl sulphoxide and then diluted in demineralized water to 1 mM and 0.1 mM.

Question: `CCN(C)C(=O)Oc1cccc([C@H](C)N(C)C)c1` [3-[(1S)-1-(dimethylamino)ethyl]phenyl N-ethyl-N-methylcarbamate] was tested. Which IC50 did it give?
Answer: 32.5 µM
